Consider 2 compounds from PubChem BioAssay AID624504 (Sanford-Burnham Center for Chemical Genomics, 2012).

This is a selection; strong and weak results do not stand in their true shares. Active and inactive are the calls of the source. Cut-off read from the data, not from the text of the source: active = inhibition above about 22%; inactive = the rest.

The assay in a line: fluorescence retest of MPTP screen hits in isolated mitochondria, single concentration (AID 624504).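 Note: 0% = DMSO vehicle and 100% = positive control.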 The note with it: membrane potential, Rhodamine 123 fluorescence, at 10 µM, stronger effect = higher value.
The term inhibition denotes the share of the control response that was lost under treatment. As for `Fc1ccc(CNC(=S)Nc2cccc(Cl)c2)cc1`, the inhibition is active: 91.7%. The figure for `O=[N+]([O-])c1ccc(NC(=S)NCc2ccc(F)cc2)cc1` is active: 90.6%.
